Antibody variant affinities, Ab-95 light chain, assay 2

Target peptide (SARS-CoV-2 spike, HR2 region): PDVDLGDISGINAS

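The starting antibody came from a phage panning campaign against this peptide. Library AAYL52 holds single substitutions and randomly drawn double and triple substitutions in the CDRs. AlphaSeq pools MATa yeast showing the antibodies with MATalpha yeast showing the peptide. After mating in shaken culture at 30 °C for 16 h, diploids were selected and their barcode pairs sequenced. Scores were corrected for input abundance and mapped to Kd with protein pairs of known affinity run in the same pool. There are three technical replicates.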

Parent: Ab-95, a human scFv built as VH, a 15-residue (Gly4Ser)3 linker, VL. Only the CDRs of the light chain vary.
VH: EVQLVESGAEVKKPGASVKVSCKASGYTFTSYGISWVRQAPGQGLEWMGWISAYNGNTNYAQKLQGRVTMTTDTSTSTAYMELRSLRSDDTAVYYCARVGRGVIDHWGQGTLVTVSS
VL: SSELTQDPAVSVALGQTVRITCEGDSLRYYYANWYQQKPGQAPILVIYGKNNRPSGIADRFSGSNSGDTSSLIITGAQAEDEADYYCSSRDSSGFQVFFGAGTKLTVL

The parent's light chain CDRs are EGDSLRYYYAN, GKNNRPS, SSRDSSGFQVF; each variant's own CDRs replace them letter for letter. The read-out is the apparent dissociation constant on a log10 scale (nM): the lower, the stronger. An entry "ND" has no value in the source: the pair was not observed among the diploids in that replicate. This suggests poor binding but is not conclusive. As a blank, each scFv also met three strains without target: over library AAYL52, 28% of these pairings were detected, typically at 3.91 and seldom below 2.90. The control count says in how many pairings with the empty strains this scFv gave a signal, with their mean in brackets.

CDR-L1,CDR-L2,CDR-L3,"log10 Kd, replicates",signal with controls
EGDSLRYYYAG,GKNVRPS,SSRDVSGFQVF,3.80 3.39 ND,1 of 9 (3.72)
EGDSLRYYYAN,WKCRRPS,SSRDSSGFQVF,4.12 ND 4.16,4 of 9 (3.49)
EGDSTRRYYAN,GKNNRPA,SSRDSSGFQVF,3.52 3.25 3.22,5 of 9 (3.63)
EGDSLRYYYAN,NKVYRPS,SSRDSSGFQVF,5.53 ND ND,2 of 9 (4.63)
ECDSLRYYYAN,GKNNRPS,SSRDSSGSMVF,ND 3.98 3.74,4 of 9 (3.26)
EFDSQRYYWAN,GKNNRPS,SSRDSSGFQVF,3.38 2.44 2.68,6 of 9 (4.31)
EGDSLRYYYAN,GKLNRPS,SSRDSSGFCVF,ND ND ND,2 of 9 (4.35)
EGDDLRYYYAN,GKNNRPS,AARDSSGFQVF,2.46 2.14 2.38,2 of 9 (3.93)
EGDSKRYYYEN,GKNNRPS,ISRDSSGFQVF,ND ND 4.13,4 of 9 (3.94)
CGDSIRYYYAN,GKNNRES,SSRDSSGFQVF,3.32 2.54 4.06,2 of 9 (3.63)
EGDSLRYYYAN,GKNNRPS,SSRHSSGFQFF,1.99 2.19 1.85,2 of 9 (4.40)
EGDSLRYYYAN,GKTNRES,SSCDSSGFQVF,ND ND 4.28,2 of 9 (4.32)
EGDSLRYYYAN,GKNFRPS,RSRDSSGMQVF,ND ND 4.37,5 of 9 (3.62)
EGDSLRFYYAS,GKNNRPS,SSRDSSGFQIF,3.16 ND 4.25,3 of 9 (3.93)
EGDSQRYYYAN,GKNLRPS,SSRDSSGFQVF,3.87 3.07 ND,3 of 9 (4.41)
EFDSLRYEYAN,GKNNRPS,SCRDSSGFQVF,1.99 2.04 1.64,4 of 9 (4.19)
HGDSLRYYYAN,GKNNRPS,QSIDSSGFQVF,3.89 ND ND,3 of 9 (4.26)
EGDSLRYYYAN,GKNNRPF,SSRDSSNFQVF,3.07 3.03 ND,1 of 9 (3.44)
EGDSLAYYYAN,GKNNRPS,SSRDSQGFQFF,3.67 3.96 ND,4 of 9 (3.77)
EGDSLRYYYAN,GKSNRPS,VSRDSSGFQVF,2.79 2.97 2.64,5 of 9 (4.23)
EGDSLRYYEAN,GKPARPS,SSRDSSGFQVF,5.75 3.06 4.21,4 of 9 (4.62)
GMDSHRYYYAN,GKNNRPS,SSRDSSGFQVF,4.12 3.44 4.18,7 of 9 (4.24)
EGDSERYYYAN,GSNNRPS,SSRDSSGFQVF,2.86 2.99 ND,1 of 9 (3.78)
ENDSLRYKYAN,GKNNRPS,SSRDSSTFQVF,ND 4.53 4.06,2 of 9 (3.70)
QGDSLRYYYAN,GKNNRPS,CSRDSSGFQVF,2.54 2.30 2.01,5 of 9 (4.10)
EGDSLRYYYAN,GKNNKPT,SSRDSNGFQVF,2.83 3.48 3.79,2 of 9 (4.53)
EGDSLRYYAAN,GKNNRPS,SWRDSSIFQVF,2.02 1.87 1.18,5 of 9 (4.16)
EGDSLRYYYTN,GKDNRPS,SSRDSSGFQEF,3.26 2.31 3.99,2 of 9 (4.01)
EGDSLRYYYAN,GKNNRPC,SSRDSAGFQVT,3.48 2.58 2.40,6 of 9 (3.70)
EGDSLRYYQAN,YKNNRLS,SSRDSSGFQVF,3.77 ND 2.75,1 of 9 (4.12)
EGDSLRYYYAN,GKWNRPS,SSRDSDGDQVF,3.66 3.67 4.03,5 of 9 (4.48)
EGDSLRYYYAN,GKNNPPS,DSEDSSGFQVF,ND ND ND,0 of 9
EGDSLRYYYAN,GKNQRPE,SSRDASGFQVF,1.94 1.67 1.55,1 of 9 (3.62)
EIDSLRYYRAN,GKNNRPS,SSRTSSGFQVF,5.53 3.44 3.07,1 of 9 (4.18)
PGDSLRYYYAG,GKNNRPS,SSRDSSYFQVF,2.79 2.93 3.19,4 of 9 (4.20)
EGDSLFYAYAN,GKNNRPS,SSADSSGFQVF,2.05 2.56 1.29,3 of 9 (4.21)
EGDSLRYYYAN,GNNNCPS,MSRDSSGFQVF,3.05 2.89 2.80,6 of 9 (4.10)
EGDSLRYYYAN,GKNNRCS,WSRDTSGFQVF,3.17 2.91 2.69,6 of 9 (3.82)
EGDSRRYYYMN,GKPNRPS,SSRDSSGFQVF,ND 4.95 ND,2 of 9 (3.98)
EGMSLRYYYCN,GKNNRPS,STRDSSGFQVF,ND ND ND,3 of 9 (4.61)
EGDSLREYYAN,GKNNRPS,SSRDSFGFQVF,3.02 3.24 2.30,5 of 9 (3.99)
EGDSLRYYYAN,NKNNRPS,SSRDWSGFQVF,2.87 2.74 2.52,2 of 9 (5.07)
EGDSFDYYYAN,GKNNRPS,SSRDSSGFLVF,ND 4.35 ND,3 of 9 (3.27)
EGDSLRYYYAN,FKNNKPS,SSRDSSGFQVF,4.44 3.78 ND,3 of 9 (3.90)
EGDILNYYYAN,GKNNRPS,SSRDSSGFQVL,2.50 3.05 3.76,3 of 9 (3.58)
EGDSLRYYYAG,GKNNRPS,SNRDSQGFQVF,ND ND ND,0 of 9
EGDSRRYYYAN,MKNNRPS,SSRDSSGFQVF,3.57 3.55 2.62,2 of 9 (3.12)
EGDFLREYYAN,GKNNRPS,SSRDSSGFQVF,ND ND ND,1 of 9 (3.53)
EGDSKRYYYAN,GANNRPS,ISRDSSGFQVF,ND ND ND,1 of 9 (4.32)
EGISLRNYYAN,GINNRPS,SSRDSSGFQVF,2.42 2.52 1.90,2 of 9 (4.41)
EGDSLRYYYAN,GKNNEPK,SSRDSAGFQVF,ND ND ND,1 of 9 (4.29)
EGDSLRYYYAN,GKNCRPS,SSRADSGFQVF,3.78 3.32 4.22,5 of 9 (3.86)

The opening 4 entries, copied out:

CDR-L1	CDR-L2	CDR-L3	log10 Kd, replicates	signal with controls
EGDSLRYYYAG	GKNVRPS	SSRDVSGFQVF	3.80 3.39 ND	1 of 9 (3.72)
EGDSLRYYYAN	WKCRRPS	SSRDSSGFQVF	4.12 ND 4.16	4 of 9 (3.49)
EGDSTRRYYAN	GKNNRPA	SSRDSSGFQVF	3.52 3.25 3.22	5 of 9 (3.63)
EGDSLRYYYAN	NKVYRPS	SSRDSSGFQVF	5.53 ND ND	2 of 9 (4.63)

Source: Engelhart et al. 2022 (doi:10.1038/s41597-022-01779-4), MIT Lincoln Laboratory and A-Alpha Bio; data file from the FLAb repository.